Molecular target: S1 protein (or the S1 subunit) of SARS-CoV-2 (Severe acute respiratory syndrome coronavirus 2, UniProt P0DTC2)
Format: binding

## C[C@@H]1O[C@@H](O[C@H]2[C@H](O[C@@H]3O[C@H](CO)[C@H](O)[C@H](O)[C@H]3O)[C@@H](CO)OC(O)[C@@H]2O)[C@@H](O)[C@H](O)[C@@H]1O (some centres unmarked) [3-fucosyllactose, Galβ1-4(Fucα1-2)Glc]
Judged from the Kd data in Table 7
  affinity with the S1 protein (in words): relatively strong
Microscale thermophoresis, RED-NHS labelled S1 protein, read-out: Dissociation constants (Kd) of the binding of the S1 protein to various sugar chains
  Kd: 7.1 µM
